Measurements reported in patent publication US10603325B2 (dated 2020).

System: EpiDerm (EPI-200) skin tissue
Test: Skin irritation test (MTT tissue viability)
Assay type: cell-based
Settings: MB at various concentrations for 60 minutes, highest dosage 500 mM

With `CN(C)c1ccc2nc3ccc(N(C)C)cc3[s+]c2c1.[Cl-]` [MB, 3,7-bis(dimethylamino)-phenothiazin-5-ium chloride] the skin irritation was “No skin irritation was observed; also recorded: does not irritate skin”.

Entries after “also recorded” stand apart in the source; their conditions may differ.
